Tests used:
MV-4-11 cells [1] = experiment: Model with subcutaneous transplantation of MV-4-11 cells (tumor volume T/C, body weight), two-agent combinations, Example 3; settings: for %BWL (Daily maximum): BALB/cA Jcl-nu/nu mice, day in parentheses; for T/C(%): Day 15; for Number of animals removed: N 5
NCI-H661 = experiment: Cell proliferation assay (ATPlite 1Step), single agents and combination with Compound A, curve-shift and CI; 72 h culture, 120 h for EPZ-6438, JQ1, MLN-4924, MLN-7243, MPI-0479605, NMS-P715; settings: Compound A : combined compound 4:1; Fa 75; 72 h culture
MC38 cells = experiment: Model with subcutaneous transplantation of MC38 cells (tumor volume T/C, body weight), Example 2; settings: G2, 12.5 mg/kg PO BID BIW
MV-4-11 cells [2] = experiment: Model with subcutaneous transplantation of MV-4-11 cells (tumor volume T/C, body weight), three-agent combination, Example 4; settings: for %BWL (Daily maximum): BALB/cA Jcl-nu/nu mice, day in parentheses; for Number of animals removed: N 5
OVCAR-8 cells = experiment: Model with subcutaneous transplantation of OVCAR-8 cells (tumor volume T/C, body weight), Example 5; settings: G2, 12.5 mg/kg PO BID BIW

CC(C)(C)c1cc(NC(=O)Nc2ccc(-c3cn4c(n3)sc3cc(OCCN5CCOCC5)ccc34)cc2)no1
Average change in tumor volume (mm^3) (Day 15 - Day 1) (MV-4-11 cells [1]; G3, 0.3 mg/kg PO QD 5ON/2OFF): 418.7 mm^3
%BWL (Daily maximum) (MV-4-11 cells [1]; G3, 0.3 mg/kg PO QD 5ON/2OFF): 0.0(1) %
T/C(%) (MV-4-11 cells [1]; G3, 0.3 mg/kg PO QD 5ON/2OFF): 71.3%
Number of animals removed (MV-4-11 cells [1]; G3, 0.3 mg/kg PO QD 5ON/2OFF): 0
Average tumor volume (mm^3) day 15 (MV-4-11 cells [1]; G3, 0.3 mg/kg PO QD 5ON/2OFF): 552.2 mm^3
CI (NCI-H661): 0.50

COc1ncnn2ccc(-c3cnc4nc(C)n(Cc5nnc([C@@H](C)F)o5)c4c3)c12
Average change in tumor volume (mm^3) (Day 12 - Day 0) (MC38 cells): 1770 mm^3
%BWL (Daily maximum) (MC38 cells; C57BL/6 mice, day in parentheses): 0.0(0) %
T/C(%) (MC38 cells; Day 12): 72.2%
Number of animals removed (MC38 cells; N 10): 0
Average tumor volume (mm^3) day12±SEM (MC38 cells; day 12): 1874.4±156.1 mm^3
T/C value (%) (MV-4-11 cells [2]; Day 15, female BALB/cA Jcl-nu/nu mice, single agent (G2), Compound A 6.25 mg/kg PO BID BIW, 14 days): 1.8%
Average change in tumor volume (mm^3) (Day 15 - Day 1) (MV-4-11 cells [2]; G2, 6.25 mg/kg PO BID BIW): 7.2 mm^3
%BWL (Daily maximum) (MV-4-11 cells [2]; G2, 6.25 mg/kg PO BID BIW): 0.0(0) %
T/C(%) (MV-4-11 cells [2]; G2, 6.25 mg/kg PO BID BIW, Day 15): 1.8%
Number of animals removed (MV-4-11 cells [2]; G2, 6.25 mg/kg PO BID BIW): 0
Average tumor volume (mm^3) day 15 (MV-4-11 cells [2]; G2, 6.25 mg/kg PO BID BIW): 118.5 mm^3
Average change in tumor volume (mm^3) (Day 22 - Day0) (OVCAR-8 cells): 113.9 mm^3
%BWL (Daily maximum) (OVCAR-8 cells; BALB/c nude mice, day in parentheses): -1.7(4) %
T/C(%) (OVCAR-8 cells; Day 22): 53.6%
Number of animals removed (OVCAR-8 cells; N 6): 0
Average tumor volume (mm^3) day22 (OVCAR-8 cells; day 22): 272.7 mm^3
Average change in tumor volume (mm^3) (Day 15 - Day 1) (MV-4-11 cells [1]; G2, 6.25 mg/kg PO BID BIW): 106.2 mm^3
%BWL (Daily maximum) (MV-4-11 cells [1]; G2, 6.25 mg/kg PO BID BIW): 0.0(1) %
T/C(%) (MV-4-11 cells [1]; G2, 6.25 mg/kg PO BID BIW): 18.1%
Number of animals removed (MV-4-11 cells [1]; G2, 6.25 mg/kg PO BID BIW): 0
Average tumor volume (mm^3) day 15 (MV-4-11 cells [1]; G2, 6.25 mg/kg PO BID BIW): 241.6 mm^3

Nc1ncn([C@@H]2O[C@H](CO)[C@@H](O)[C@H]2O)c(=O)n1
Average change in tumor volume (mm^3) (Day 15 - Day 1) (MV-4-11 cells [2]; G5, 5 mg/kg SC QD BIW): 344.6 mm^3
%BWL (Daily maximum) (MV-4-11 cells [2]; G5, 5 mg/kg SC QD BIW): 0.0(0) %
T/C(%) (MV-4-11 cells [2]; G5, 5 mg/kg SC QD BIW, Day 15): 85.2%
Number of animals removed (MV-4-11 cells [2]; G5, 5 mg/kg SC QD BIW): 0
Average tumor volume (mm^3) day 15 (MV-4-11 cells [2]; G5, 5 mg/kg SC QD BIW): 452.2 mm^3
Average change in tumor volume (mm^3) (Day 15 - Day 1) (MV-4-11 cells [1]; G6, 5 mg/kg SC QD BIW): 446.6 mm^3
%BWL (Daily maximum) (MV-4-11 cells [1]; G6, 5 mg/kg SC QD BIW): 0.0(1) %
T/C(%) (MV-4-11 cells [1]; G6, 5 mg/kg SC QD BIW): 76.1%
Number of animals removed (MV-4-11 cells [1]; G6, 5 mg/kg SC QD BIW): 0
Average tumor volume (mm^3) day 15 (MV-4-11 cells [1]; G6, 5 mg/kg SC QD BIW): 579.2 mm^3
